Data on 1 compound can be found in ChEMBL document CHEMBL1153453, “Schiff bases of 3-formylchromone as thymidine phosphorylase inhibitors” (Bioorg Med Chem, 2009).

Sequences of proteins named here, by UniProt entry; tags and fusion partners are left off. A change or cut given only in a name is not applied to a line headed by its entry.
UniProt P07650: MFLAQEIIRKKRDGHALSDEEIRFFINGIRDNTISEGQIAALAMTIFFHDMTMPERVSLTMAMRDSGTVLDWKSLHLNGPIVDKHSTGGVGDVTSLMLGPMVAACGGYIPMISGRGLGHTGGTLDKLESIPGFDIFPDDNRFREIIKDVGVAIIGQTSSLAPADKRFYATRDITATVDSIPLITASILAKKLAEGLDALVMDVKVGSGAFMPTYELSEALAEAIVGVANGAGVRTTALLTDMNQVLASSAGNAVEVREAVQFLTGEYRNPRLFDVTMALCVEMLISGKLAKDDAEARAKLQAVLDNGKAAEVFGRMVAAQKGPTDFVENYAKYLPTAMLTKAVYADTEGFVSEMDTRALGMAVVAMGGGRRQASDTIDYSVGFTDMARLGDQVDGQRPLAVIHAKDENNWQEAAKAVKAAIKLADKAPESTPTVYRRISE

The target in this assay is Thymidine phosphorylase (Escherichia coli K-12, UniProt P07650). Description: Inhibition of Escherichia coli thymidine phosphorylase. The gist of the method: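 E. coli thymidine phosphorylase, 0.05 or 0.002 U, in potassium phosphate buffer pH 7.4, preincubated with test compound 10 min at 25 °C. A 290 nm pre-read was then taken, substrate added (1.5 mM stock), and absorbance at 290 nm read after 10, 20 and 30 min. Increasing compound concentrations were tested in triplicate. IC50 was calculated from the inhibition data.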

`O=c1[nH]c(=O)c2cc[nH]c2[nH]1` [7-DEAZAXANTHINE] showed an IC50 of 39.3 µM.
